Data as given in patent EP0434750B1 (priority 1988, dated 1990).
“And” between values parts separate entries of the source, which are not always exact repeats. Equal entries are not always repeated.

Assays:
[1] = system: monkeys (Macaca fascicularis); assay: Dopamine and homovanillic acid levels in monkey brain samples (HPLC); format: in vivo
From the text: (§1) Four animals are naive controls. […] TABLE 3

[2] = system: Tyrosine hydroxylase (TH); assay: Tyrosine hydroxylase activity in monkey brain homogenate (tritium release method); format: in vivo, Macaca fascicularis; conditions: MPTP alone; monkeys M1-3
From the text: as §1

[3] = monkeys receiving MPTP alone, caudate and putamen

## CN1CC=C(c2ccccc2)CC1 [MPTP, 1-Methyl-4-phenyl-1,2,5,6-tetrahydropyridine]
[1]; MPTP alone, monkeys M1-3
  CAUDATE DA: 0.6 nmol per g tissue and 0.9 nmol per g tissue
  PUTAMEN DA: 1.2 nmol per g tissue and 1.4 nmol per g tissue and 1.8 nmol per g tissue
[1]; [3]
  Dopamine depleted to % of control: about 1 % of control
  HVA % of control: about 10 % of control
[2]
  PUTAMEN TH (% control): 11.8 % control and 10.8 % control and 21.0 % control
